Reference: paper PMC10388362, “Fluorescent Ligands Enable Target Engagement Studies for the Intracellular Allosteric Binding Site of the Chemokine Receptor CXCR2” (Journal of Medicinal Chemistry, 2023)

Sequences of proteins named here, by UniProt entry; tags and fusion partners are left off.
UniProt P25025, whole entry: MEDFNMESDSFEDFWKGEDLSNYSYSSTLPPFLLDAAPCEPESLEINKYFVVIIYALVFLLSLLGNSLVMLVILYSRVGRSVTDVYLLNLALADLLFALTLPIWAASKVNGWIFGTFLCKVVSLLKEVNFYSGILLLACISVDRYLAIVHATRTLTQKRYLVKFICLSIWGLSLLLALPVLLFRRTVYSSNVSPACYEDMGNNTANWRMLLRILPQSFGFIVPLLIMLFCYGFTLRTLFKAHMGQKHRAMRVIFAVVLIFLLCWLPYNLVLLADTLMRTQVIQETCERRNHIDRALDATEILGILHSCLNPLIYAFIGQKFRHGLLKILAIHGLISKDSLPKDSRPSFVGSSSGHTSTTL

Tests used:
Set-up in all cases: Promega pNLF1-C (Nluc) #CXCR20TN00; host or cells: HEK293T, transient transfection (PEI)
CXCR2 [1] = biological target: T1, CXCR2 (Homo sapiens, UniProt P25025); assay: Live cell NanoBRET competition binding with 9a; conditions: competition with 9a (50 nM), live HEK293T cells expressing CXCR2_Nluc
CXCR2 [2] = biological target: T1, CXCR2; assay: Membrane-based NanoBRET competition assay with 9a; assay type: binding; conditions: competition with 9a (50 nM), CXCR2_Nluc membranes
CXCR2 [3] = biological target: T1, CXCR2; assay: Membrane-based NanoBRET competition kinetic assay with 9a; conditions: kinetic competitive binding with 9a (50 nM), CXCR2_Nluc membranes; read-out: residence time tr
Description: The obtained data were analyzed using the kinetics of the competitive binding algorithm in PRISM9.5 (GraphPad) to determine competition binding kinetics.

Ki (CXCR2 [1]; read-out: Ki): 0.00216 µM
Ki (CXCR2 [1]; read-out: pKi (converted)): 0.00209 µM
Ki (CXCR2 [2]; read-out: Ki): 0.0386 µM
Ki (CXCR2 [2]; read-out: pKi (converted)): 0.038 µM
residence time (CXCR2 [3]): 2.7 ± 0.6 min
SMILES: O=C(Nc1ccc([N+](=O)[O-])cc1O)Nc1ccccc1Br [compound 4]
